Where a name gives a salt, the structure may show the parent alone.
Target: D(2) dopamine receptor (Rattus norvegicus, UniProt P61169)

The chains behind the UniProt entries cited, without tags or fusion partners.
UniProt P61169, whole entry: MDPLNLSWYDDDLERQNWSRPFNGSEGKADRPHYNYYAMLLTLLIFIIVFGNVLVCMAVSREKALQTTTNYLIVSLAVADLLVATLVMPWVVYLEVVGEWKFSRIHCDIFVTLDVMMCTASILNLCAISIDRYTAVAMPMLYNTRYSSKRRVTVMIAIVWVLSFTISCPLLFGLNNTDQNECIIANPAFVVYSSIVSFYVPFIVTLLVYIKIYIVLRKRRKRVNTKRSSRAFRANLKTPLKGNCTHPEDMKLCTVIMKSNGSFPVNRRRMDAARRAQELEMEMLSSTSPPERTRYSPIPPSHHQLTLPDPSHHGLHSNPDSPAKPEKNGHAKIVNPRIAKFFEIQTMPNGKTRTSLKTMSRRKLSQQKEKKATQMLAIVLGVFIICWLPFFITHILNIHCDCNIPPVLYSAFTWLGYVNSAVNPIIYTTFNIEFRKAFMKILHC

Ki: 93 nM
SMILES: CCCCC1NC[C@H]2c3ccc(O)c(O)c3Cc3cccc1c32 (mixture of isomers) [(+/-)-3-n-butyldinapsoline hydrobromide]

From BindingDB's records for doi:10.1016/j.bmc.2003.11.015 (Bristol-Myers Squibb Pharmaceutical Research Institute, 2004)
